The values that follow are results of earlier work, collected in publication PMC7004556 (Cancer Science, 2020).

For this data set, the system named is advanced solid tumors. Particulars: Japanese patients with advanced solid tumors; cited from earlier work.

Consider AZD4547, for which the Tolerability result is “well tolerated”.
